Assay results taken from ChEMBL document CHEMBL2040748, “N-4-t-Butylbenzyl 2-(4-methylsulfonylaminophenyl) propanamide TRPV1 antagonists: Structure-activity relationships in the A-region” (Bioorg Med Chem, 2012).

The chains behind the UniProt entries cited, without tags or fusion partners.
UniProt O35433, whole entry: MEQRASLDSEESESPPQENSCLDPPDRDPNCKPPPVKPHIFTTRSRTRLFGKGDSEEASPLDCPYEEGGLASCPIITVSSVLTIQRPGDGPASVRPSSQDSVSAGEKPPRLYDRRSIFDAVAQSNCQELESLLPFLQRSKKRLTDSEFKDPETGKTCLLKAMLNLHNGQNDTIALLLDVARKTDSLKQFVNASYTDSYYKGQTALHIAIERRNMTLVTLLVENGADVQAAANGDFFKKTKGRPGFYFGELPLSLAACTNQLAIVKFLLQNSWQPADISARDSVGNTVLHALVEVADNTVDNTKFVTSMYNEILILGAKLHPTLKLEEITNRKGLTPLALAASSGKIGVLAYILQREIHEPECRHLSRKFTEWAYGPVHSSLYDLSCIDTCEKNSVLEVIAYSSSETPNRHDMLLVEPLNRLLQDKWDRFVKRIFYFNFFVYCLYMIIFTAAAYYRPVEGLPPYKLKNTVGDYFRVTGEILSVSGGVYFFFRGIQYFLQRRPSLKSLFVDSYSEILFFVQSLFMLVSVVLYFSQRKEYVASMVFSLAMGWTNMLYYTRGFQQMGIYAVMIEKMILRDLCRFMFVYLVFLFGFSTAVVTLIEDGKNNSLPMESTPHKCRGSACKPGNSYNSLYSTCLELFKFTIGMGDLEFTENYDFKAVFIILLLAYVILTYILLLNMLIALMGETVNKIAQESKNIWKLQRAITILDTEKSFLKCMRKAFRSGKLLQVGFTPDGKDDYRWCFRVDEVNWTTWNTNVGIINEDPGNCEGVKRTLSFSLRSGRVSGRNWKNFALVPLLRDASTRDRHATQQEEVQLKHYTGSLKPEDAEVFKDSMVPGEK

Biological target: Transient receptor potential cation channel subfamily V member 1 (Rattus norvegicus) (UniProt O35433)
Test: Antagonist activity at rat TRPV1 receptor expressed in CHO cells assessed as decrease in capsaicin-induced intracellular 45Ca2+ uptake after 1 hr by […] analysis relative to untreated control
Assay type: functional, cell-based

## CC(C(=O)NCc1ccc(C(C)(C)C)cc1)c1ccc(NS(C)(=O)=O)c(N2CCOCC2)c1 (configuration not stated)
  Efficacy: 34%

## CC(C(=O)NCc1ccc(C(C)(C)C)cc1)c1ccc(NS(C)(=O)=O)c(N2CCCCC2)c1 (configuration not stated)
  Efficacy: 37%
